Experimental data reported in ChEMBL document CHEMBL5120935, “Synthesis, Anti-Plasmodial Activities, and Mechanistic Insights of 4-Aminoquinoline-Triazolopyrimidine Hybrids” (ACS Med Chem Lett, 2022).

How the values were obtained:
Homo sapiens [1] = species on record: Homo sapiens
Homo sapiens [2] = species on record: Homo sapiens; remark: listed apart in the source

Cc1cc(NCCCCCCCCNc2ccnc3cc(Cl)ccc23)n2ncnc2n1
log K (Homo sapiens [1]): 6.38
log K (Homo sapiens [2]): 6.79
